Consider 1 molecule from article PMC2677886 (Nucleic Acids Research, 2009).

In experiment [1] the target is MRE11–RAD50–NBS1 (MRN) complex, recombinant (human, UniProt P49959; Q92878; O60934). Nature of the experiment: pull-down.
The target of experiment [2] is MRE11–RAD50 (MR) complex, recombinant (human, UniProt P49959; Q92878). Nature of the experiment: pull-down.

B1: RECQ5–CBD fusion protein (natural protein, human, UniProt O94762 1-991, looked up)
chain: MSSHHTTFPFDPERRVRSTLKKVFGFDSFKTPLQESATMAVVKGNKDVFVCMPTGAGKSLCYQLPALLAKGITIVVSPLIALIQDQVDHLLTLKVRVSSLNSKLSAQERKELLADLEREKPQTKILYITPEMAASSSFQPTLNSLVSRHLLSYLVVDEAHCVSQWGHDFRPDYLRLGALRSRLGHAPCVALTATATPQVQEDVFAALHLKKPVAIFKTPCFRANLFYDVQFKELISDPYGNLKDFCLKALGQEADKGLSGCGIVYCRTREACEQLAIELSCRGVNAKAYHAGLKASERTLVQNDWMEEKVPVIVATISFGMGVDKANVRFVAHWNIAKSMAGYYQESGRAGRDGKPSWCRLYYSRNDRDQVSFLIRKEVAKLQEKRGNKASDKATIMAFDALVTFCEELGCRHAAIAKYFGDALPACAKGCDHCQNPTAVRRRLEALERSSSWSKTCIGPSQGNGFDPELYEGGRKGYGDFSRYDEGSGGSGDEGRDEAHKREWNLFYQKQMQLRKGKDPKIEEFVPPDENCPLKEASSRRIPRLTVKAREHCLRLLEEALSSNRQSTRTADEADLRAKAVELEHETFRNAKVANLYKASVLKKVADIHRASKDGQPYDMGGSAKSCSAQAEPPEPNEYDIPPASHVYSLKPKRVGAGFPKGSCPFQTATELMETTRIREQAPQPERGGEHEPPSRPCGLLDEDGSEPLPGPRGEVPGGSAHYGGPSPEKKAKSSSGGSSLAKGRASKKQQLLATAAHKDSQSIARFFCRRVESPALLASAPEAEGACPSCEGVQGPPMAPEKYTGEEDGAGGHSPAPPQTEECLRERPSTCPPRDQGTPEVQPTPAKDTWKGKRPRSQQENPESQPQKRPRPSAKPSVVAEVKGSVSASEQGTLNPTAQDPFQLSAPGVSLKEAANVVVKCLTPFYKEGKFASKELFKGFARHLSHLLTQKTSPGRSVKEEAQNLIRHFFHGRARCESEADWHGLCGPQR
Turning to B1, the binding result in experiment [1] and in experiment [2] was “binds” each time.
